Experimental data: patent US20170340698A1, “CYCLIC PEPTIDE SPECIFICALLY BINDING TO APOPTOTIC CELLS AND USE THEREOF” (KYUNGPOOK NATIONAL UNIVERSITY INDUSTRY-ACADEMIC COOPERATION …, priority 2014, published 2017)

System: SNU-16 stomach tumor xenografts
Test: Anti-tumor treatment of mice: tumor volume, tumor weight, TUNEL staining
Format: in vivo
Conditions: cisplatin 5 mg/kg i.p. once per week, cetuximab 1.5 mg/kg i.p. twice per week, two weeks; measured over three weeks
Description: Eight-week old female athymic (nu/nu) Balb/c mice were purchased from Orient laboratories (Seongnam, Korea) and were housed under specific-pathogen-free (SPF) conditions with laboratory chow and water ad libitum. Stomach tumor xenografts were established by subcutaneously injecting 1×10^7 SNU-16 cells in 100 ml saline into the right flank. Tumors were allowed to reach 50-60 mm^3 of volume before randomization and initiation of treatment. […] Changes in tumor size were measured using an automatic caliper over three weeks. Tumor volumes were calculated using the formula: volume=(length×width×height)/2. Tumor weights were measured after isolation of tumor mass.
After in vivo imaging, mice were euthanized three weeks after the initiation of anticancer drug treatment, and the tumors were removed and frozen quickly in O.C.T. embedding medium (Sakura Finetechnical, Tokyo, Japan). […] The stained tissue sections were observed under a fluorescence microscope (Carl Zeiss, Jena, Germany).
To examine anti-tumor growth effect by cisplatin or cetuximab alone and in combination, tumor volumes and weights after the drug treatment were measured.

Substance: cetuximab: anti-epidermal growth factor receptor antibody
- tumor volume compared with control group treated without drug: reduced tumor volumes
